# Measured affinities in a library of Ab-14 heavy chain variants

Data: MIT Lincoln Laboratory AlphaSeq set, Engelhart et al. 2022, doi:10.1038/s41597-022-01779-4, as distributed in FLAb.

Target peptide (SARS-CoV-2 spike, HR2 region): PDVDLGDISGINAS

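Phage display of a naive human antibody library on the peptide gave the parent. In library AAYL49, one, two or three CDR residues were substituted; doubles and triples were drawn at random. In AlphaSeq, yeast of one mating type display the scFv and yeast of the other type display the target. Binding brings cells together so that they mate, and sequencing counts the barcode pairs among the diploids. Scores were corrected for input abundance and mapped to Kd with protein pairs of known affinity run in the same pool. Mating was done three times.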

Each scFv is VH, the linker GGGGSGGGGSGGGGS, VL, as in the parent Ab-14, and differs from it in the CDRs of the heavy chain only.
VH: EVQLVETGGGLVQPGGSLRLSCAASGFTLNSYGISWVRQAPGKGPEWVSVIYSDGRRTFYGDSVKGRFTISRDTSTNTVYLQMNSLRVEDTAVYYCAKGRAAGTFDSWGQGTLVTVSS
VL: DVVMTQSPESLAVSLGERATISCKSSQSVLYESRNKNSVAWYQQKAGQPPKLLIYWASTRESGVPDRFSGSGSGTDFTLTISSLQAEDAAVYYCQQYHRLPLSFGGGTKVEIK

Positions count from residue 1 of the parent VH; R56V puts V in place of R. All variants listed here change R56 of the VH, counted from its first residue. The Kd shown is the geometric mean over detected replicates; a lower Kd is a better binder. Where no diploid with the target was found in any replicate, the entry reads "no signal": below detection, most likely a poor binder, though not proof of it. Background: pairings of library AAYL49 with three empty control strains gave a value in 15% of cases (median 11 µM, 5th percentile 680 nM). Values in that range, when seen in few replicates, are hard to tell from nonspecific mating. In this assay the parent's reference entry averaged 4.4 nM; its copy inside this library read 13 µM (one replicate of three).

changes	apparent Kd	seen in
R56V+A102C+F105H	60 µM	1 of 3
S35A+Y52H+R56A	no signal	0 of 3
L29E+Y32L+R56N	34 µM	3 of 3
T28N+R56N	no signal	0 of 3
R56E+R57Y+Y60S	no signal	0 of 3
I34V+R56M+D62I	no signal	0 of 3
R56M+S107H	54 nM	3 of 3
Y52H+R56V+F59I	no signal	0 of 3
N30D+R56H+A102F	9.9 µM	2 of 3
Y52N+D54H+R56C	no signal	0 of 3
R56F+S107K	260 nM	2 of 3
R56A+G99A	1.4 µM	1 of 3
R56L+S63Y+R100A	350 nM	3 of 3
R56M+K65Q	15 nM	3 of 3
F27R+R56K+K65I	no signal	0 of 3
S31G+R56S+V64N	28 µM	1 of 3
R56A+G99N	3.2 µM	3 of 3
Y52N+R56W	2.5 µM	1 of 3
D54G+R56S	no signal	0 of 3
T28L+R56W+K65M	310 nM	3 of 3
I51T+R56D+D106F	no signal	0 of 3
V50H+G55N+R56K	130 µM	2 of 3
R56V+V64M+S107C	5.0 µM	1 of 3
Y32V+R56A+R100N	46 µM	1 of 3
L29N+S35M+R56E	360 nM	3 of 3
S53M+R56P+G61W	180 µM	2 of 3
Y32D+R56C+V64Y	no signal	0 of 3
G55Y+R56K+D62S	79 µM	2 of 3
R56P+G61M+V64S	no signal	0 of 3
I34S+V50S+R56A	no signal	0 of 3
Y52G+R56E+S107P	no signal	0 of 3
R56L+V64I+D106R	870 nM	3 of 3
Y32D+R56H+T104A	no signal	0 of 3
T28M+R56D+D62L	no signal	0 of 3
R56V+V64C	42 nM	3 of 3
I51M+R56G+A101N	no signal	0 of 3
G33H+R56T+G103L	12 µM	1 of 3
R56Y	13 nM	3 of 3
I34H+R56C+G103K	10 µM	2 of 3
R56D+K65A+S107P	230 nM	3 of 3
I51H+R56K+T58V	4.4 µM	2 of 3
R56N+A101T+S107K	40 nM	3 of 3
R56D+G103C+T104V	170 nM	3 of 3
L29Q+R56I	no signal	0 of 3
R56N+S63A+G103W	54 µM	1 of 3
T28R+R56E+D106K	no signal	0 of 3
R56Y+R57N+V64H	17 µM	1 of 3
S31E+G55F+R56T	140 µM	1 of 3
G26V+R56T+A101C	1.2 µM	3 of 3
G26K+R56W+S107R	850 nM	2 of 3
Y32E+R56L+R57I	920 µM	1 of 3
L29N+S31T+R56E	no signal	0 of 3
S53P+G55T+R56A	no signal	0 of 3
Y32R+R56F+R100I	19 µM	3 of 3
R56G+G99F+G103K	no signal	0 of 3
Y32H+R56D+S107M	1.4 µM	1 of 3
R56Q+R100P+F105I	no signal	0 of 3
R56V+G61V+T104M	100 nM	3 of 3
N30T+R56L+F105T	no signal	0 of 3
S35P+R56D+D106W	no signal	0 of 3
I34E+R56T+A102W	720 nM	1 of 3
T28R+R56C+T58R	no signal	0 of 3
R56W+G103H	no signal	0 of 3
G55A+R56N+G103V	no signal	0 of 3
V50R+R56P+F59R	no signal	0 of 3
T28Y+I34Q+R56I	no signal	0 of 3
G55N+R56P+K65N	no signal	0 of 3
V50F+R56I	no signal	0 of 3
F27W+I51D+R56L	no signal	0 of 3
F27A+R56Q+V64I	100 nM	2 of 3

The 10 strongest on average among those seen in every replicate, once more:

changes,apparent Kd,seen in
R56Y,13 nM,3 of 3
R56M+K65Q,15 nM,3 of 3
R56N+A101T+S107K,40 nM,3 of 3
R56V+V64C,42 nM,3 of 3
R56M+S107H,54 nM,3 of 3
R56V+G61V+T104M,100 nM,3 of 3
R56D+G103C+T104V,170 nM,3 of 3
R56D+K65A+S107P,230 nM,3 of 3
T28L+R56W+K65M,310 nM,3 of 3
R56L+S63Y+R100A,350 nM,3 of 3